Source: article PMC5241705 (ACS Infectious Diseases, 2016)

Amino acid sequences for entries named in this document (tags omitted). Residues count along the entry.
UniProt G7CNL4, 1-513: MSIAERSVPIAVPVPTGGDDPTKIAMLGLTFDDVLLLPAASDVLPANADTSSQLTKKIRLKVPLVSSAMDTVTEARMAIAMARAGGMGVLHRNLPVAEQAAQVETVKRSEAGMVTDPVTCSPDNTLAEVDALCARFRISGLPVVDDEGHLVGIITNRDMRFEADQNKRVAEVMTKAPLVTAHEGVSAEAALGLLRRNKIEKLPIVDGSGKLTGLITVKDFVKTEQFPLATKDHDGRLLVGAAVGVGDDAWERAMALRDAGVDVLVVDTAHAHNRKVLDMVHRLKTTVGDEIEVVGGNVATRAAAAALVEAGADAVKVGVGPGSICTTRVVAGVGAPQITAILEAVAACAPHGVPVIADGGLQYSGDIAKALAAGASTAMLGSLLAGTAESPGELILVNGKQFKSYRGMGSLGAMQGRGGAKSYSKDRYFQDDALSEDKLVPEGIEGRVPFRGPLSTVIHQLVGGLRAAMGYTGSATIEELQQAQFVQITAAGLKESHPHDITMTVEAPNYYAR

How the values were obtained:
[1] = target: Mth GuaB2 (full-length) (Mycolicibacterium thermoresistibile, UniProt G7CNL4); assay: biochemical
[2] = test system: replicating H37Rv; format: cell-based, Mycobacterium tuberculosis

In the case of `O=C(C1CCCCC1)N1CCN(S(=O)(=O)c2cccc3cnccc23)CC1` [VCC234718, N-(5-Isoquinolinylsulfonyl)-N’-cyclohexanoyl-piperazine], the Ki [1] is reported as 130 nM and the “selectivity index (TD50/MIC)” value [2] is reported as ≥ 8 fold.
